Tests used:
[1] = target: T1, p65ΔC14 (Homo sapiens, UniProt Q04206); assay: GILZ binding ELISA with partial length p65; conditions: detected with anti-p65 mAb
T1 construct: purchased Active Motif, Carlsbad, Calif
Protocol: (§1) High binding ELISA plates coated with 40 μM r-p65/r-GILZ were probed with cytoplasmic/nuclear extracts, respectively, of CD4+ peripheral blood mononuclear cells stimulated with purified protein derivative (10 units/ml) for 48 h in the presence of dexamethasone (100 μg/ml). Binding of the plate-bound r-p65 with cytoplasmic GILZ and the plate-bound GILZ with nuclear p65 was detected with anti-GILZ mAb or anti-p65 mAb, respectively, followed by trinitrobenzene substrate. For detecting direct interaction of r-GILZ (5-40 μM), captured wells were probed with r-p65 (0.325-40 μM) at 22° C. for 2 h and detected with peroxidase-conjugated anti-GILZ mAb followed by trinitrobenzene substrate. Alternatively plates coated with GILZ-P, control-P (3.9-250 μM), r-GILZ (0.2-1.8 μM) were probed with 40 μM r-p65:DDK/p65ΔC14 and detected with anti-DDK/anti-p65 mAb, respectively. Absorbance at 650 nm was measured between 0 and 300 s with a mixing time of 0.30 s and a 5-s interval between readings.

Sequences of proteins named here, by UniProt entry; tags and fusion partners are left off. Residues count along the entry.
UniProt Q04206, 1-537 limits assumed, stated change not applied: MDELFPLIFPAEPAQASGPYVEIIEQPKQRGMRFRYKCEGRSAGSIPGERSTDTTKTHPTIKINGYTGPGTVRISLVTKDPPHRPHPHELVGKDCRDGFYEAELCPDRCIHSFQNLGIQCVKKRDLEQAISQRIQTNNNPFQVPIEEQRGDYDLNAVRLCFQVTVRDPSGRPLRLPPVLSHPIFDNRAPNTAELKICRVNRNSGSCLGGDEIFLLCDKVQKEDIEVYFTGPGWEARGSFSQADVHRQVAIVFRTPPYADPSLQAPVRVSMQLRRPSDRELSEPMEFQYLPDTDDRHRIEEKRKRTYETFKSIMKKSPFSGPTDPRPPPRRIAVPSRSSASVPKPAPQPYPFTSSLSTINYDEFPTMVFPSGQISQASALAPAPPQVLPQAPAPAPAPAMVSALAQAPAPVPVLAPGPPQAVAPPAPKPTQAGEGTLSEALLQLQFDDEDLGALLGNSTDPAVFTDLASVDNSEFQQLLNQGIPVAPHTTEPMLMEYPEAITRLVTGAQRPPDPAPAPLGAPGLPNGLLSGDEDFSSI
UniProt Q04206, whole entry: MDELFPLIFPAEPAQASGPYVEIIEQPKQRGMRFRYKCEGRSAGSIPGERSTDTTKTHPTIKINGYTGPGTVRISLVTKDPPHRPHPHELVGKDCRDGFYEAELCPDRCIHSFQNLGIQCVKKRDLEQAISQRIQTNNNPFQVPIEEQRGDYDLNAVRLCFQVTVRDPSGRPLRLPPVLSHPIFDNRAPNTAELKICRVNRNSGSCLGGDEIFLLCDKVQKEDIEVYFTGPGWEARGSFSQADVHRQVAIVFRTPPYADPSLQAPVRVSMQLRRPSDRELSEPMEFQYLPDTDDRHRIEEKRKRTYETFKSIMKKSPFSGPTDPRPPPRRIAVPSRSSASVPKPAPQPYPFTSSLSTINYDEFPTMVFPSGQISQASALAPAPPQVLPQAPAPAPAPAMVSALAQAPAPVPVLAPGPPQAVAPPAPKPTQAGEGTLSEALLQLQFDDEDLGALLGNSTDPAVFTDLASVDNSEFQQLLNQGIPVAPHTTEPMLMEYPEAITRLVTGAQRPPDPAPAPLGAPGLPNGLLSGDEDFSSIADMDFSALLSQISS

[2] = target: T2, recombinant human p65 protein (r-p65) (Homo sapiens, UniProt Q04206); assay: GILZ:p65 direct binding and kinetics by modified ELISA
T2 construct: control-P at varying concentrations was probed with full-length r-p65-DDK; purchased OriGene Technologies Inc., Rockville, Md
Protocol: To detect direct interaction, ELISA plates were coated with increasing concentrations of the GILZ protein and probed with increasing concentrations of the p65 protein followed by detection with anti-human GILZ mAb. To detect binding of cellular GILZ and p65, ELISA plates were coated with the p65 protein (20 ng), and probed with the cytoplasmic fraction from T cells. Binding of the plate bound p65 with the cytoplasmic GILZ protein was detected with anti-human GILZ mAb. Alternatively, wells coated with the GILZ-GST protein (20 ng) were probed with the nuclear fractions from T cells and the GILZ:nuclear p65 binding was detected with anti-human p65 mAb. The bound complex was detected with TNB at absorbance of 450 nm.
as §1

B1: r-GILZ: recombinant glucocorticoid induced leucine zipper protein (Abnova; OriGene with C-terminal DDK) (protein)
chain: MNTEMYQTPMEVAVYQLHNFSISFFSSLLGGDVVSVKLDNSASGASVVAIDNKIEQAMDLVKNHLMYAVREEVEILKEQIRELVEKNSQLERENTLLKTLASPEQLEKFQSCLSPEEPAPESPQVPEAPGGSAV
modifications: optional C-terminal DDK tag
absorbance of plate-bound agent probed with p65ΔC14 [1]: Absorbance over background was not observed
time at which maximum absorbance was reached in binding with r-p65 [2]: 210 s
adjusted velocity of the interaction with r-p65 ([2]; at 1:4 molar concentrations): 7.5 s⁻¹
p65 binding (absorbance) of plate-bound agent probed with full-length r-p65 ([2]; varying coating concentrations, 40 μM r-p65): decreased with decreasing concentrations

Source: US8999937B2, “Glucocorticoid induced leucine zipper mimetics as therapeutic agents in multiple sclerosis” (Indiana University Research and Technology Corporation, priority 2011, dated 2015)
